Source: US8697643B2, “Method for controllably releasing a drug conjugate within subcutaneous tissue in response to the local concentration of an indicator” (priority 2005, dated 2014)

Settings: 10 mg/ml in 1×PBS, sub-Q, n=3 rats, 3.5 hours

Fluorescein isothiocyanate glycogen [FITC-glycogen]
absorption into systemic circulation (serum fluorescence): absorbs significantly faster into systemic circulation than even the FITC-Dex-70
